# Reference: ChEMBL document CHEMBL1124263 (J Med Chem, 1988)
# Amino acid sequences for entries named in this document (tags omitted). A change or cut given only in a name is not applied to a line headed by its entry.
# UniProt P30994: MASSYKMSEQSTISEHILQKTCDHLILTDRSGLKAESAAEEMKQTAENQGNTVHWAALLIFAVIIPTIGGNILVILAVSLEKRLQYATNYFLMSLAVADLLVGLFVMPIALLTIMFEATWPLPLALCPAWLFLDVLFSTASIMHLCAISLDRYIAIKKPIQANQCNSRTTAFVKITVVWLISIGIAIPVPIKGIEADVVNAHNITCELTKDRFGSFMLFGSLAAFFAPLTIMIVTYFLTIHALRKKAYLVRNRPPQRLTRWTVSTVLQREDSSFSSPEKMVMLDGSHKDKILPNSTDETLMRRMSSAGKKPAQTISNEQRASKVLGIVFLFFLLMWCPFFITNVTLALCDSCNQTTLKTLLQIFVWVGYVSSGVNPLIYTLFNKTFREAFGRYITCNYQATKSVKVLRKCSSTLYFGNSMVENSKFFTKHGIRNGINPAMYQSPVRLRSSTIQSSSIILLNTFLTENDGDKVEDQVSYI
# UniProt P08909: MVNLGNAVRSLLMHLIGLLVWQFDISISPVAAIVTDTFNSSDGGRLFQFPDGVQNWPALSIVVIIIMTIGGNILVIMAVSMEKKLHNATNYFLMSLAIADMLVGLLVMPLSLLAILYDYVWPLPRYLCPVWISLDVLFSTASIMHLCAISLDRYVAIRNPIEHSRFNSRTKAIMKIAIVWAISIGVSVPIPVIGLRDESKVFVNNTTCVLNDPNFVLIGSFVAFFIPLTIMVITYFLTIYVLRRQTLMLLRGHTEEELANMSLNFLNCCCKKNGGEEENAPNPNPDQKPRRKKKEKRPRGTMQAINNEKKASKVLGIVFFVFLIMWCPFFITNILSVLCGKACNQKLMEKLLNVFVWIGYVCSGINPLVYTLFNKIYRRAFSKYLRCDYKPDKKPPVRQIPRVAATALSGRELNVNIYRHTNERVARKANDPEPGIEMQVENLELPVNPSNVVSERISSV
# UniProt P14842: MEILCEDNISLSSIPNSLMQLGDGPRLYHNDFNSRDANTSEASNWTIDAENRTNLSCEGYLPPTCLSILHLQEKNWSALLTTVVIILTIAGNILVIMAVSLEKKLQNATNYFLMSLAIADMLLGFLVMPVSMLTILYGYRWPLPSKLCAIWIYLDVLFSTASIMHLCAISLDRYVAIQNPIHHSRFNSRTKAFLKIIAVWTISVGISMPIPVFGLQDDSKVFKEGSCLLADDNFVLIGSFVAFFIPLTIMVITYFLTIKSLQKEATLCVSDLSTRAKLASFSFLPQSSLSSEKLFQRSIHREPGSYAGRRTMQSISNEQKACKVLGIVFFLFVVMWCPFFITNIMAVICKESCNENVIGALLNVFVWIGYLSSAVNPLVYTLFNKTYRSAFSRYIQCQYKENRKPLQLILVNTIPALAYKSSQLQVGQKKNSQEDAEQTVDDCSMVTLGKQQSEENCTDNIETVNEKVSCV
# Biological target: Serotonin 2 (5-HT2) receptor (Rattus norvegicus, UniProt P30994+P08909+P14842)
smiles,measurement,value
COc1ccc2[nH]cc(CCN)c2c1 [5-METHOXYTRYPTAMINE],Log Ki,-5.99
